From publication PMC12874371, “Screening of FDA-Approved Small Molecules to Discover Inhibitors of the Pseudomonas aeruginosa Quorum-Sensing Enzyme, PqsE” (Biochemistry, 2026)

Sequences of proteins named here, by UniProt entry; tags and fusion partners are left off.
UniProt P20581, whole entry S285W: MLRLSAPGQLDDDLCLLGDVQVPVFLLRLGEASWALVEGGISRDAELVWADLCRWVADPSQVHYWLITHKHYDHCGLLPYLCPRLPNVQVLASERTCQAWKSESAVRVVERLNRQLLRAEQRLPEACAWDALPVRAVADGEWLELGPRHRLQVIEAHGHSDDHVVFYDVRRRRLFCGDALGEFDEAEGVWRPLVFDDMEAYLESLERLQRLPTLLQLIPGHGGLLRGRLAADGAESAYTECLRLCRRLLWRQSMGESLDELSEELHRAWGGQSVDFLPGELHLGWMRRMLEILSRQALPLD

Tests used:
intracellular PqsE = biological target: T1, intracellular PqsE (Pseudomonas aeruginosa, UniProt P20581); type: cell-based; conditions: 10 and 100 μM, 8 h growth
T1 construct: endogenous in cells; host or cells: P. aeruginosa UCBPP-PA14 wild type

PqsE = biological target: T2, PqsE (Pseudomonas aeruginosa, UniProt P20581); type: binding; conditions: dilution series, 2 μM PqsE, result in words
T2 construct: 6xHis (N); made in house; host or cells: E. coli BL21 (DE3), pET28b-6xHis-pqsE(WT) (strain SM776)

PqsE(S285W) = biological target: T3, PqsE(S285W) (Pseudomonas aeruginosa, UniProt P20581, S285W); type: biochemical; conditions: esterase assay
T3 construct: 6xHis (N); made in house; host or cells: E. coli BL21 (DE3), pET28b-6xHis-pqsE(S285W) (strain IT55)

Row | Structure (SMILES) | Effect on acetophenone levels (intracellular PqsE) | Competition with BB562 probe, dose-response fluorescence polarization (PqsE) | Potency against PqsE(S285W) compared to PqsE(WT) (PqsE(S285W); result in words) | Increase of IC50 against PqsE(S285W) versus PqsE(WT) (PqsE(S285W))
1 | O=c1n(CCCN2CCN(c3cccc(Cl)c3)CC2)nc2ccccn12 [Trazodone] | no significant effect on acetophenone levels | did not reduce fluorescence polarization fully to baseline levels | less potent | 
2 | O=C(CCCCCCC(=O)Nc1ccccc1)NO [Vorinostat] |  |  |  | 10 fold
